Reference: US20110281285A1, “Assay for Detecting Cathepsin K Activty in Bone, Cartilage and/or Soft Tissue” (priority 2009, published 2011)

Sequences of proteins named here, by UniProt entry; tags and fusion partners are left off. Residues count along the entry.
UniProt P43235, 115-329 limits assumed: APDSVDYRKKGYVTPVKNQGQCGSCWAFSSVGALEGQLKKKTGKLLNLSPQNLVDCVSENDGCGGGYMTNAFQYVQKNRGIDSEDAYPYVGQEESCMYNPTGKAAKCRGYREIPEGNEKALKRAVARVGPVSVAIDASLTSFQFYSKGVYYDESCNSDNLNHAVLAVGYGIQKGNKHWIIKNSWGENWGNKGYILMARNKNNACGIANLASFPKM
UniProt P07711, 114-333 limits assumed: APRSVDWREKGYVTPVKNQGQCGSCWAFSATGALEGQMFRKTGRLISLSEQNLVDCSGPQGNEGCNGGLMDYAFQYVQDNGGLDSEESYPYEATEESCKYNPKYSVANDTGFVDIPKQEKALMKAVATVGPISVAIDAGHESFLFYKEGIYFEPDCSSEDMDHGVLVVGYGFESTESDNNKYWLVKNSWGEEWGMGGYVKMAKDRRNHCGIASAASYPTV
UniProt P25774, 115-331 limits assumed: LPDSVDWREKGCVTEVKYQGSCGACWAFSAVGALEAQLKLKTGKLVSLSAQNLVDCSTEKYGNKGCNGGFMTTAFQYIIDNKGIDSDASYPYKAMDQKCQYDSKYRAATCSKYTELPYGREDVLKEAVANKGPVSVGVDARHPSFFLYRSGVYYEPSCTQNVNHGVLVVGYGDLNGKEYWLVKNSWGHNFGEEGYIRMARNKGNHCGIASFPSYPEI

How the values were obtained:
[1] = system: cartilage culture; experiment: Toxicity analysis: [3H] proline incorporation in cartilage culture; details: range of concentrations incl. 10, 25, 50 nmol/L (data not shown)
Method: The effect of L-873724 on the synthesis of Col II and other matrix proteins was assessed by measuring the incorporation of [^3H] proline in cartilage culture. The tissue was maintained for 7 days as described above, in the presence and absence of the inhibitor at 10 nmol/L, 25 nmol/L, and 50 nmol/L and media were changed at days 4 and 7. On day 7, medium was supplemented with 25 μCi/ml of tritiated proline (Amersham, Buckinghamshire, UK) and culture continued for 48 hours. After culture, the cartilage was harvested and washed three times for 10 to 15 minutes in PBS to remove free label. The cartilage was digested with proteinase K as described above and radioactivity determined by scintillation counting.

[2] = molecular target: T1, human cathepsin K (Homo sapiens, UniProt P43235); experiment: Digestion of human Col II with cathepsin K, C2K neoepitope by inhibition ELISA; details: pH 5.5, inhibitor added at start of incubation, each subsequent time point (data not shown)
Method: Immulon™ 2 plates (VWR International, Montreal, Canada) were coated with the peptide-ovalbumin conjugate (prepared as described above for the hemocyanin conjugate) diluted in phosphate-buffered saline (PBS), pH 7.2, at 3 ng/well (50 μl/well), the optimum concentration as determined by checkerboard analyses. After overnight incubation at 4° C., the plate was washed three times with PBS-0.1% Tween™ 20 and blocked with 100 μl of PBS-1% bovine serum albumin (BSA), at room temperature for 30 minutes. Serial dilutions of the standard peptide containing the epitope that had been used for immunization were prepared and added at 50 μl/well in triplicate to round bottom polypropylene plates used as preincubation plates; the antiserum was diluted 1:12,000 (optimum dilution as determined by checkerboard analyses) in PBS-1% BSA, 0.1% Tween 20, pH 7.2, and added to the plates (50 μl/well). In the nonspecific binding wells 50 μl of PBS-1% BSA and 50 μl of PBS-1% BSA, 0.1% Tween 20 were added; the maximum binding wells contained 50 μl of the diluted antiserum and 50 μl of PBS-1% BSA. After 1 hour incubation at 37° C., 50 μl of each preincubated well was transferred to the Immulon 2 flat-bottom, 96-well microtiter plates. The plates were incubated at 4° C. for 30 minutes and then washed three times with PBS-0.1% Tween 20. […] The optical density (405 nm) was read after 1 hour incubation. […]

[3] = molecular target: cathepsin L (Homo sapiens, UniProt P07711); details: relative to human cathepsin K IC50; cited from earlier work
[4] = molecular target: T1, human cathepsin K; details: read-out: IC50 against human cathepsin K; cited from earlier work
[5] = molecular target: cathepsin B (Homo sapiens, UniProt P07858); details: relative to human cathepsin K IC50; cited from earlier work
[6] = molecular target: cathepsin S (Homo sapiens, UniProt P25774); details: relative to human cathepsin K IC50; cited from earlier work
[7] = system: OA articular cartilage explants; experiment: Explant culture of OA cartilage with and without cathepsin K inhibitor
Method: Wet weights of 70 to 80 mg were placed in each of the wells of the culture plates (24-well Costar™ 3548 plate; Corning Inc., Corning, N.Y.). After 48 hours of preculture at 37° C. the media were changed (day 0) and then replaced every 4 days for a total of 16 days. The cultures were established in quadruplicate with and without the cathepsin K inhibitor (L-873724)^19 at 10 nmol/L, 25 nmol/L, and 50 nmol/L in a final concentration of 0.1% dimethyl sulfoxide (DMSO). The inhibitor was added fresh to the medium at each change. The media collected from day 4 to day 16 and the recovered cartilage were stored at −20° C. until analysis after digestion with α-chymotrypsin. Complete digestion of the cartilage was ensured by further adding 1 ml/tube of 1 mg/ml proteinase K (Sigma) in 50 mmol/L Tris-HCl containing the proteinase inhibitors.^2 After overnight incubation at 56° C. no residue remained and the enzyme was inactivated by boiling the samples for 10 minutes. […] The concentration of the neoepitope released from the cartilage was calculated by summation of the concentrations found both in the media and α-chymotrypsin digests and expressed as pmol of C2K/mg wet wt of cartilage as above. […] GAG release into the media was expressed as a percentage of the total GAG that represents the summation of the GAG concentration present in the media and the one from the two cartilage extracts.

In the case of CC(C)C[C@H](N[C@@H](c1ccc(-c2ccc(S(C)(=O)=O)cc2)cc1)C(F)(F)F)C(=O)NCC#N, the “toxicity: incorporation of tritiated proline into newly synthesized proteins” value [1] is listed as “nontoxic”, the “release of the C2K neoepitope with inhibitor in the digestion buffer” value [2] is listed as “negligible” and the “fold higher IC50 value versus cathepsin L” value [3] is listed as 890 fold. The IC50 [4] was 0.2 nM, the “fold higher IC50 value versus cathepsin B” value [5] was 890 fold and the “fold higher IC50 value versus cathepsin S” value [6] was 890 fold. For the same molecule, the “generation of the C2K neoepitope (media plus cartilage)” value ([7]; 10, 25, 50 nmol/L, 16 days culture, eight OA patients (FIG. 8)) was “reduced the generation of the neoepitope in four of eight OA patients” and the “proteoglycan degradation measured as glycosaminoglycan release” value ([7]; OA explant culture (data not shown)) was “no effect”.
